Consider one compound from patent US11220482B2, “Aminopyridinemethanol compounds and their use” (UNIVERSITE AMIENS PICARDIE JULES VERNE, priority 2017, dated 2022).

Series [1] deals with CHO-K1 cells. As to the kind of experiment: In vitro micronucleus assay, long-term exposure. To be noted: long-term (24 h), without S9 mix, positive control 0.6 μg/mL.
Series [2] relates to CHO-K1 cells. In words: In vitro micronucleus assay, short-term exposure. To be noted: without S9 mix, positive control 0.6 μg/mL.

With `CO[C@@]12[C@H](COC(N)=O)C3=C(C(=O)C(C)=C(N)C3=O)N1C[C@@H]1N[C@@H]12` [Mitomycin C, mitomycin C], the “MNC2 (micronucleated cell rate)” value with CHO-K1 cells [1] was 32 ‰. The “MNC1 (micronucleated cell rate)” value in the series on CHO-K1 cells [2] is recorded as 28 ‰.
